65 molecules from PubChem BioAssay AID602163 (The Scripps Research Institute Molecular Screening Center, 2012) can be followed below.

The list shows a part of the results, in another mix than the full data. The source made the active and inactive calls. Cut-off read from the data, not from the text of the source: active = activation above about 7.5%; inactive = the rest.

This experiment deals with Methionine sulfoxide reductase A (Bos taurus). The experiment is described as follows: activation of methionine sulfoxide reductase A – biochemical, absorbance, bovine, HTS, primary screen (AID 602163).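 Note: 0% = vehicle and 100% = reference activator.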 Conditions: purified bovine MsrA, absorbance read-out; at 10.6 µM; hits give high values.
As to `C(Cc1nn[nH]n1)Cc1nn[nH]n1`, the activation is inactive: -6.63%. The same measure for `Nc1ccc([As](=O)(O)c2ccc([N+](=O)[O-])cc2)cc1`: inactive: 0.3%; for `O=C(OC1CN2CCC1CC2)c1cccc(Cl)c1` (stereo not given): inactive: 1.93%. Then `O=[N+]([O-])c1ccc(O)c(/C=N/Nc2ccc([N+](=O)[O-])cc2[N+](=O)[O-])c1`, with inactive: -1.78%. Take `O=[N+]([O-])c1ncn(CCn2cnc([N+](=O)[O-])n2)n1`: the activation was inactive: -3.83%. Then `CC(=O)NC(SC(=S)N(C)C)C(Cl)(Cl)Cl` (stereo not given), with inactive: -7.01%; and `O=[As](O)(c1ccccc1)c1ccc(O)cc1`, with inactive: -7.48%. The same measure for `C[C@H]1OP(=O)(Oc2ccccc2)[C@H](O)[C@H](O)[C@H]1N=[N+]=[N-]` (stereo not given in full): inactive: -2.34%. Then `O=P(Nc1nc2ccccc2s1)(c1ccccc1)c1ccccc1`, with inactive: -3%.

With `COc1ccc(N)c([N+](=O)[O-])c1[N+](=O)[O-]`, the activation was inactive: -2.31%. The same measure for `Nc1ccc(CCCCOc2ccccc2)cc1`: inactive: -6.99%; for `O=P(Nc1ccccn1)(c1ccc(Br)cc1)c1ccc(Br)cc1`: inactive: -0.33%. On to `CN(C)C1(CNC(=O)c2ccc(Cl)c(S(N)(=O)=O)c2)CCCCC1`, for which the activation is inactive: -1.76%. The same measure for `c1nnnn1CCn1cnnn1`: inactive: -6%; for `CC(C)C(=O)NC(Sc1ccccc1)C(Cl)(Cl)Cl` (stereo not given): inactive: -2.46%; for `O=P(Nc1nccs1)(c1ccccc1)c1ccccc1`: inactive: 4.85%.

As to `CC(=O)Nc1ccc(Oc2c([N+](=O)[O-])cc([N+](=O)[O-])cc2[N+](=O)[O-])cc1`, the activation is inactive: -5.18%. `CC(=O)Nc1ccc([As](=O)(O)O)c(O)c1`: the activation is inactive: -4.86%. As for `COC(=O)C1(C)COP(=O)(NCc2ccccc2)OC1` (stereo not given), the activation was inactive: -3.53%. Then `CC(=O)c1ccc(N2CC2c2ccncc2)cc1` (stereo not given), with inactive: -4%; and `N#C/C(=C\c1ccc(N(CCBr)CCBr)cc1)C(N)=O`, with inactive: -4.01%; and `C[C@H]1OP(=O)(Oc2ccccc2)C[C@@H]2O[C@@H]21` (stereo not given in full), with inactive: -1.59%. As to `C[C@@H]1C=CCP(=O)(Oc2ccccc2)O1` (stereo not given in full), the activation is inactive: -2.81%. The same measure for `Cc1ccccc1CN(C)C(=O)COC(=O)C(O)(c1ccccc1)c1ccccc1`: inactive: -11.1%; for `CCc1cc(O)c([N+](=O)[O-])c(C)c1[N+](=O)[O-]`: inactive: -2.21%; for `CC(C)(C)C(=O)NC(Sc1ccccc1)C(Cl)(Cl)Cl` (stereo not given): inactive: 3.77%. Then `CCOc1ccc(C2=NCC(CBr)S2)cc1` (stereo not given), with inactive: 1.63%; and `O=P1(Nc2nc3ccc(Cl)cc3s2)COc2ccccc2O1` (stereo not given), with inactive: -1.39%; and `O=c1c2cc([N+](=O)[O-])ccc2[nH]c2c([N+](=O)[O-])cc([N+](=O)[O-])cc12`, with inactive: -3.07%. For the molecule `CN(C)C(=O)Oc1noc2ccccc12`, the activation was inactive: -2.42%. As to `CC(NC(=O)COC(=O)C(O)(c1ccccc1)c1ccccc1)c1ccccc1` (stereo not given), the activation was inactive: -0.23%. For the molecule `Cc1ccccc1OP(=O)(Nc1ccccn1)Oc1ccccc1C`, the activation is inactive: -7.44%.

`Cc1ccc(OP(=O)(Nc2ccccn2)Oc2ccc(C)cc2)cc1`: the activation is inactive: -3.21%.

With `CC(=O)NC(SC(=S)N(CC(C)C)CC(C)C)C(Cl)(Cl)Cl` (stereo not given), the activation was inactive: -0.23%.

In the case of `COC(=O)c1cc2c(s1)N=C(c1ccccc1)N(C)P2(=O)N1CCOCC1` (stereo not given), the activation was inactive: -0.3%.

As to `CCC(=O)N1C2C3N(C(=O)CC)C1C1N(C(=O)CC)C(C(N1C(=O)CC)N3C(=O)CC)N2C(=O)CC`, the activation is inactive: 0.89%. For the molecule `O=C(OC1CN2CCC1CC2)c1ccccc1` (stereo not given), the activation was inactive: 2.64%.

Turning to `O=P1(N(CCCl)CCCl)OCCC2CCCCN21` (stereo not given), the activation was inactive: 1.84%. Then `CCNC(=S)/N=C(\N)N[N+](=O)[O-]`, with inactive: -2.04%; and `O=C(NC1CCS(=O)(=O)C1)NP(=S)(Oc1ccccc1)Oc1ccccc1` (stereo not given), with inactive: -0.05%; and `Cc1ccc(NP(=O)(Oc2cccc(C)c2)Oc2cccc(C)c2)nc1`, with inactive: -1.88%. Then `c1ccc(-c2nn[nH]n2)c(-c2nn[nH]n2)c1`, with inactive: -1.52%; and `CCN(N=Nc1nonc1N)c1nonc1N`, with inactive: -5.49%. Then `Nc1cccc2ccc([As](=O)(O)O)cc12`, with inactive: -2.39%; and `Cc1ccc(NP(=O)(Oc2ccccc2F)Oc2ccccc2F)nc1`, with inactive: -1.13%; and `Cc1cc(SC(NC(=O)c2ccc(F)cc2)C(Cl)(Cl)Cl)ncn1` (stereo not given), with inactive: 3.11%. Take `CCOP(=O)(Nc1ccccc1)OCC`: the activation was inactive: 1.83%.

Turning to `CCCC1OP(N)(=O)OCC1CC` (stereo not given), the activation was inactive: -1.18%. Then `CC(=O)Nc1ccc([As](=O)(O)O)cc1`, with inactive: -2.12%; and `O=C(O)c1ccccc1[As](=O)(O)O`, with inactive: -5.83%; and `O=P(Nc1nc2ccc(Cl)cc2s1)(c1ccccc1)c1ccccc1`, with inactive: -2.17%. In the case of `CN(C)P(=O)(N(C)C)n1c(Nc2ccccc2)nnc1-c1ccccc1`, the activation was inactive: 0%.

`O=[N+]([O-])C1C(O)C(O)C([N+](=O)[O-])C(O)C1O` (stereo not given): the activation was inactive: -2.87%. Then `Nc1cc(N)c2nonc2c1[N+](=O)[O-]`, with inactive: -5.08%; and `CC(C)CC(=O)NC(Sc1ccc(Cl)cc1)C(Cl)(Cl)Cl` (stereo not given), with inactive: -3.8%; and `O=C(NC(Sc1ccncn1)C(Cl)(Cl)Cl)c1ccccc1` (stereo not given), with active: 13.5%. In the case of `Oc1ccccc1CNc1ccccn1`, the activation is inactive: -8.51%.

On to `Cc1ccc(OP(=O)(Nc2nccs2)Oc2ccc(C)cc2)cc1`, for which the activation was inactive: -3.12%. The same measure for `COc1ccccc1OP(=O)(Nc1ccc(C)cn1)Oc1ccccc1OC`: inactive: -5.2%; for `CN1CCCC(OC(=O)C(c2ccccc2)c2ccccc2)C1` (stereo not given): inactive: -2.04%.

As to `Clc1ccc(Cl)c(NC2=NCC(CBr)S2)c1` (stereo not given), the activation was inactive: -1.22%.

In the case of `NC(=O)c1cc([N+](=O)[O-])cc([N+](=O)[O-])c1N`, the activation is inactive: -3.92%. Then `Cc1ccc(N/C(=N/P(=O)(N2CCOCC2)N2CCOCC2)N2CCOCC2)cc1`, with inactive: -1.44%.

With `CN(C)C(=O)OCCc1n(C)cc[n+]1C`, the activation was inactive: -4.2%. The same measure for `CC(C)c1nc(Nc2ccccc2)n(P(=O)(N(C)C)N(C)C)n1`: inactive: 0.42%.
